Laboratory results published in patent publication US12702675B2, “Tetrahydrococannabinolic acid cocrystals” (Manoira Corporation, priority 2020, dated 2026).

Assays:
[1] = Solid-state stability study, accelerated conditions (40° C. and 75% relative humidity, 14 days); type: physicochemical; conditions: 40° C./75% RH, 2 weeks, sealed container; for Appearance: 50 mg solid; for XRPD analysis: form change by XRPD
Experimental: A study was carried out to examine the physical stability of the tetrahydrocannabinolic acid cocrystals with respect to solid form conversion or signs of decomposition over time under both ambient and accelerated conditions.

[2] = Solid-state stability study, ambient conditions in clear glass vial for 6 months; type: physicochemical; conditions: for Appearance: 50 mg solid; for XRPD analysis: form change by XRPD

Which results are given for “1:1 tetrahydrocannabinolic acid L-proline cocrystal [1:1 THCA L-PROLINE]”?
Appearance [1]: No change; XRPD analysis [1]: No change; XRPD analysis ([1]; listed as 1:1 tetrahydrocannabinolic acid L-proline cocrystal): retained their original crystalline form; Appearance [2]: No change; XRPD analysis [2]: No change

With “1:1 tetrahydrocannabinolic acid caffeine cocrystal [1:1 THCA CAFFEINE]” as the substance, how does the Appearance [1] read?
The Appearance was “No change”.

What about the XRPD analysis [1] of the same substance?
The XRPD analysis was “No change”.

And the XRPD analysis ([1]; listed as 1:1 tetrahydrocannabinolic acid caffeine cocrystal)?
Its XRPD analysis is “retained their original crystalline form”.

And the Appearance [2]?
Its Appearance is “No change”.

What about the XRPD analysis [2] of the same substance?
The XRPD analysis was “No change”.
